The values below come from PubChem BioAssay AID1777 (Sanford-Burnham Center for Chemical Genomics, 2009).

Protein sequences, listed by entry. Tags and fused reporters are not part of them. Lines headed by an entry give the natural chain unless they say otherwise; changes in a name come on top.
UniProt P41145: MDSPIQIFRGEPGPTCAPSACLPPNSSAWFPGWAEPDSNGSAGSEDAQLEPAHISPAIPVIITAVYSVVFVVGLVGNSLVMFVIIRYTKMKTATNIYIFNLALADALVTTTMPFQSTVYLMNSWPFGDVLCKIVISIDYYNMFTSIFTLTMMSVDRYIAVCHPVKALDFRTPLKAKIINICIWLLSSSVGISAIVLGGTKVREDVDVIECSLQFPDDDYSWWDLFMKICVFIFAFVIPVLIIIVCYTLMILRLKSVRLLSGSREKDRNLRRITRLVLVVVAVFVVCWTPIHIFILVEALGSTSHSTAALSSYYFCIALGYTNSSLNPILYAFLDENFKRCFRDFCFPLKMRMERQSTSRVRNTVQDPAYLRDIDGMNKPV

The other results are listed elsewhere or left out. Potency and affinity values are given separately. Activity calls are given as the source filed them. Cut-off read from the data, not from the text of the source: active = activation above about 50% (passing the limit was not always enough); inactive = the rest.

The test deals with Kappa-type opioid receptor (Homo sapiens) (UniProt P41145). Briefly: kappa opioid receptor activators – cell-based, luminescence, uHTS, primary screen (AID 1777). The note with it: KOR beta-arrestin recruitment, at 10 µM, stronger effect = higher value. For orientation: Activated receptors often draw arrestin, which recruitment assays turn into a signal.
For `Nc1ncnc2c1ncn2CCN1CCCCC1`, the activation is inactive: 4.8%.

Take `Cc1c2non([O-])c-2c(C)[n+](=O)[n+]1[O-]`: the activation was inactive: 0.6%.

Take `O=C(Cn1c(CO)nc2ccccc21)NCCc1ccc(F)cc1`: the activation was inactive: -0.8%.

Turning to `CC(C)[C@H](NC(=O)N1CCn2c1nc1ccccc12)C(=O)NCC1CCCO1` (some centres undefined), the activation is inactive: 0.8%.

As to `Cc1ccc(-c2csc(N3CCN(c4cc5c(cc4Cl)nc(-c4ccncc4)n5CCN4CCCCC4)CC3)n2)cc1`, the activation was inactive: 1.2%.

Turning to `O=C(NC(Sc1ccncn1)C(Cl)(Cl)Cl)c1ccccc1` (centres undefined), the activation was inactive: 0.2%.

In the case of `Oc1ccccc1CNc1ccccn1`, the activation was inactive: 1.1%.

As to `CCC(=O)N1c2ccc(S(=O)(=O)CCC(=O)N3CCn4c3nc3ccccc34)cc2CC1C` (centres undefined), the activation was inactive: 7.6%.

`COCCN1CCn2c(nc3cc([N+](=O)[O-])ccc32)C1`: the activation is inactive: -3.6%.

As for `Cc1ccccc1C(=O)Nc1cccc(NC(=O)Cn2cnc3c(=O)n(C)c(=O)n(C)c32)c1`, the activation is inactive: -0.8%.

Take `CC(C)CC(=O)NC(Sc1ccc(Cl)cc1)C(Cl)(Cl)Cl` (centres undefined): the activation is inactive: -0.4%.

For `N=c1n(CCOc2ccccc2)c2ccccc2n1CCN1CCOCC1`, the activation is inactive: -10.2%.

As for `CSCC[C@H](NC(=O)N1CCn2c1nc1ccccc12)C(=O)NCc1ccc(C)cc1`, the activation is inactive: -1.2%.

On to `Nc1cc(N)c2nonc2c1[N+](=O)[O-]`, for which the activation was inactive: -2.5%.

With `O=C(Nc1nc2ccccc2n1CCN1CCOCC1)c1ccc(Cl)cc1`, the activation was inactive: 6.5%.

For the compound `CCCCCCNCCn1cnc2c(N)ncnc21`, the activation was inactive: -0.1%.

Consider `CCc1cccc(CC)c1NC(=O)Cn1c(-c2ccccc2Cl)nc2ccccc21`, for which the activation is inactive: 0.1%.

Regarding `COCCCNC(=O)CC1C(=O)N(Cc2ccccc2)C(C)c2nc3ccccc3n21` (centres undefined), the activation is inactive: -3%.

For `O=C1Cn2c(nc3ccccc32)N1c1ccccc1F`, the activation is inactive: -2.8%.

Regarding `N=c1n(CCCOc2ccc(F)cc2)c2ccccc2n1CC(N)=O`, the activation was inactive: -0.5%.

Regarding `Cc1n[nH]c(C)c1CCC(=O)N/N=C/C=C/c1ccccc1`, the activation is inactive: -1.2%.

As to `COc1cccc(/C=N/NC(=O)Cn2cnc3c2c(=O)n(C)c(=O)n3C)c1OC`, the activation was inactive: -1%.

Regarding `CCC(=O)Nc1ccc2c(c1)nc1n2CCN(CCOC)C1`, the activation was inactive: 0%.

Take `CCCCNc1nc2ccccc2n1CC(=O)N1CCc2ccccc2C1`: the activation was inactive: 1%.

Regarding `C=CCOC(=O)C1=C(C)N=C2SCCC(=O)N2C1/C=C/c1ccccc1OC` (centres undefined), the activation is inactive: 12.6%.

In the case of `Cc1nc2ccc(NC(=O)Cn3cnc4c3c(=O)n(C)c(=O)n4C)cc2s1`, the activation was inactive: -3.4%.

Take `CC1CCCC(C)N1C(=O)Cn1c(SCC(=O)NCc2ccc3c(c2)OCO3)nc2ccccc21` (centres undefined): the activation is inactive: -3.5%.

`O=C(Cn1c(-c2cscn2)nc2ccccc21)Nc1ccc(Cl)cc1`: the activation is inactive: -3.9%.

In the case of `CCCn1c(=O)[nH]c(=O)c2c1nc(-c1ccccc1)n2CCN1CCOCC1`, the activation was inactive: 7.9%.

Turning to `CCCCC(=O)N/N=C(C)/C=C/c1ccccc1F`, the activation is inactive: 1.3%.

Consider `CCN(CC)CCn1c(/N=C/c2cc(Br)ccc2O)nc2ccccc21`, for which the activation is inactive: -1.5%.

Consider `Cn1c(=O)c2ncn(CC(=O)NCCC3=CCCCC3)c2n(C)c1=O`, for which the activation is inactive: -9.4%.

As to `CCOc1ccc(C(O)Cn2c(=N)n(CCN3CCCCC3)c3ccccc32)cc1` (centres undefined), the activation is inactive: 2.4%.

As for `Cc1ccc(C(=O)NC(C)c2nc3ccccc3n2CC(=O)Nc2c(C)cc(C)cc2C)cc1` (centres undefined), the activation was inactive: 0.4%.

`CC(O)c1nc2ccccc2n1CC(=O)N1CCN(c2ccccc2)CC1` (centres undefined): the activation is inactive: 1%.

Take `CCOCN(C(=O)Cn1c(C(C)O)nc2ccccc21)c1c(C)cccc1CC` (centres undefined): the activation is inactive: -4.3%.

As for `Cc1ccc(N/C(=N/P(=O)(N2CCOCC2)N2CCOCC2)N2CCOCC2)cc1`, the activation was inactive: -2.6%.

As to `O=C(CSc1nc2ccccc2n1CC(=O)N1CCCCC1)N1CCCCC1`, the activation was inactive: 1.7%.

`NC(=O)c1cc([N+](=O)[O-])cc([N+](=O)[O-])c1N`: the activation is inactive: 3.4%.

For `CC1CCCN(C(=O)Cn2c(-c3nonc3N)nc3ccccc32)C1` (centres undefined), the activation was inactive: 15%.

Consider `O=C(Nc1ccccc1)N1CCC(n2c(=O)[nH]c3ccccc32)CC1`, for which the activation was inactive: -0.6%.

Turning to `Cc1ccc2c(c1)C1CN(C)CCC1N2C(=O)c1ccc(Cl)c(S(=O)(=O)N2CCOCC2)c1` (centres undefined), the activation was inactive: 4.1%.

Turning to `Nc1nonc1-c1nc2ccccc2n1CC(=O)N/N=C\c1ccc(-c2ccc(Cl)cc2)o1`, the activation is inactive: 5.6%.

Turning to `Cc1ccc(-c2csc(N3CCN(c4ccc5nc(-c6ccncc6)n(CCN6CCCCC6)c5c4)CC3)n2)cc1`, the activation is inactive: -2.9%.

For `CCC(C(=O)NC1CCCCC1)n1c(SCc2ccc(F)cc2)nc2ccncc21` (centres undefined), the activation is inactive: -0.1%.

Turning to `CN(C)C(=O)Cn1c(SCC(=O)Nc2ccc3c(c2)OCO3)nc2ccccc21`, the activation is inactive: -7%.

For the compound `Cc1ccc(/C=N/NC(=O)Cn2cnc3ccccc32)cc1`, the activation is inactive: -1.4%.

Consider `O=C(Cn1c(NCCO)nc2ccccc21)NCCc1ccccc1`, for which the activation was inactive: 7.7%.

In the case of `Clc1ccc(Cl)c(NC2=NCC(CBr)S2)c1` (centres undefined), the activation was inactive: 6%.

Consider `CN1CCCC(OC(=O)C(c2ccccc2)c2ccccc2)C1` (centres undefined), for which the activation was inactive: 4.9%.

As for `COc1ccc(CNC(=O)CCCCCNC(=O)N2CCn3c2nc2ccccc23)cc1`, the activation was inactive: -0.5%.

Regarding `CCOc1cc(N2CCOCC2)c(OCC)cc1NC(=O)Cn1cnc2c(=O)n(C)c(=O)n(C)c21`, the activation is inactive: 0.5%.

Regarding `O=C1Cn2c(nc3ccccc32)N1c1cccc(C(F)(F)F)c1`, the activation is inactive: 4%.

Regarding `COc1ccc(C(=O)CSc2nc3ccccc3n2CC(=O)NC(C)(C)C)cc1`, the activation is inactive: 0.4%.

Take `Cc1ccc(OP(=O)(Nc2nccs2)Oc2ccc(C)cc2)cc1`: the activation is inactive: -1%.

Regarding `CCC(C)(C)n1nnnc1CN1CCC(n2c(C)nc3cc(C(F)(F)F)ccc32)CC1`, the activation is inactive: 3.5%.

In the case of `Cc1nc2cc(F)ccc2n1C1CCN(Cc2nnnn2CCc2ccccc2)CC1`, the activation is inactive: 11%.

Regarding `CN1CCN(CCN2CCn3c2nc2ccccc23)CC1`, the activation is inactive: -0.4%.

Regarding `O=C(Nc1ccc2c(c1)nc1n2CCN(Cc2ccccc2)C1)c1cccs1`, the activation is inactive: 8.2%.

In the case of `O=C(CCC(=O)Nc1ccccc1)N/N=C/C=C/c1ccccc1`, the activation is inactive: -1.7%.

Consider `CC1CN(Cc2nc3c(c(=O)[nH]c(=O)n3C)n2CCN2CCOCC2)CC(C)O1` (centres undefined), for which the activation is inactive: 1%.

For the compound `Cn1c(=O)c2c(ncn2CC(N)=O)n(C)c1=O`, the activation was inactive: 1.4%.

For the compound `O=C(Cn1c(-c2cncs2)nc2ccccc21)NCc1ccccc1`, the activation was inactive: 0.5%.

As to `O=[N+]([O-])c1cc([N+](=O)[O-])c(CCN2CCOCC2)c([N+](=O)[O-])c1`, the activation is inactive: -4.9%.

For the compound `COc1ccc(N2C(=O)CC(n3c(CCCCO)nc4ccccc43)C2=O)cc1` (centres undefined), the activation was inactive: -1.8%.

In the case of `O=C(NCCn1c(C(F)(F)F)nc2ccccc21)[C@H]1CCCN1c1nc(CN2CCCCC2)cs1`, the activation was inactive: -0.4%.

Take `COc1ccc(CC(=O)N2CCC(Nc3nc4ccccc4n3Cc3ccc(F)cc3)CC2)cc1`: the activation was inactive: 1.3%.

In the case of `O=C(Cn1c(COc2ccccc2)nc2ccccc21)Nc1cc(Cl)ccc1Cl`, the activation is inactive: 5.5%.

With `Cc1ccccc1NC(=O)Cn1cnc2c1c(=O)n(C)c(=O)n2C`, the activation is inactive: 3.6%.

As for `COc1ccc(CCNC(=O)Cn2c(-c3nonc3N)nc3ccccc32)cc1OC`, the activation is inactive: 1.4%.

`CC(C)NC(=O)Cn1c(SCC(=O)N2CCCCCC2)nc2ccccc21`: the activation is inactive: -2.8%.

Consider `CC(C)C[C@H](NC(=O)N1CCn2c1nc1ccccc12)C(=O)N1CCCCC1`, for which the activation is inactive: 1.7%.

In the case of `CC(C)CSc1nc2ccccc2n1CC(N)=O`, the activation was inactive: -9.7%.

As to `Nc1ncnc2c1ncn2C1OC(CO)C(O)C1N` (centres undefined), the activation was inactive: 2%.

Turning to `CC1CCCCN1C(=O)CSc1nc2ccccc2n1CC(=O)N1CCc2ccccc21` (centres undefined), the activation is inactive: -6.6%.

In the case of `Cn1c(=O)n(CC(=O)NCc2cccnc2)c2ccccc21`, the activation was inactive: -0.7%.

For the compound `O=C(Cn1c(SCC(=O)N2CCc3ccccc3C2)nc2ccccc21)NC1CCCC1`, the activation is inactive: -2.3%.

As to `O=C(CCCCCNC(=O)N1CCn2c1nc1ccccc12)N[C@@H](Cc1ccccc1)C(=O)O`, the activation is inactive: -2%.

Take `Cn1c(=O)c2c(nc(NCc3ccccc3)n2CC(=O)NCc2ccccc2)n(C)c1=O`: the activation is inactive: 3%.

As for `O=C(Cn1cnc2ccccc21)Nc1cccc([N+](=O)[O-])c1`, the activation was inactive: -0.7%.

For `Nc1cccc2ccc([As](=O)(O)O)cc12`, the activation is inactive: 2.8%.

With `CCN(CC)CCn1c(=N)n(CCOc2ccccc2)c2ccccc21`, the activation was inactive: 1.5%.

As to `CC(C)(C)NC(=O)Cn1c(SCC(=O)NC2CCCC2)nc2ccccc21`, the activation was inactive: -1.4%.

Take `CCN(N=Nc1nonc1N)c1nonc1N`: the activation was inactive: -2.8%.

In the case of `CCN(CC)CCNC(=O)Cn1c(-c2ccccn2)nc2ccccc21`, the activation is inactive: 2%.

Turning to `CCC(=O)Nc1nnc(/C=C/c2ccc(OC)cc2)s1`, the activation was inactive: 5.5%.

`Nc1nonc1-c1nc2ccccc2n1CC(=O)Nc1ccccc1`: the activation is inactive: -3%.

For the compound `CC(=O)c1ccc(NC(=O)C2CC(=O)Nc3nc4ccccc4n32)cc1` (centres undefined), the activation is inactive: 1%.

`COC(=O)C1=C(C)N=C2SCCC(=O)N2C1/C=C/c1ccccc1` (centres undefined): the activation is inactive: 6.4%.

Turning to `CC1CCN(C(=O)Cn2c(SCC(=O)Nc3nccs3)nc3ccccc32)CC1`, the activation was inactive: 5%.

In the case of `CCOC(=O)c1ccccc1NC(=O)Cn1c(-c2nonc2N)nc2ccccc21`, the activation is inactive: -0.9%.

Turning to `CC(C)NC(=O)CC1C(=O)N(Cc2ccccc2)C(C)c2nc3ccccc3n21` (centres undefined), the activation was inactive: -1.2%.

For the compound `C(=N\c1nc2ccccc2n1CCN1CCCCC1)/c1ccc2c(c1)OCO2`, the activation is inactive: 4.4%.

`O=P(Nc1nc2ccc(Cl)cc2s1)(c1ccccc1)c1ccccc1`: the activation is inactive: -0.8%.
